From article PMC8595397, “Reproductive Regulation of PrRPs in Teleost: The Link Between Feeding and Reproduction” (Frontiers in Endocrinology, 2021)

System: PrRPs, GnRH2 and GnRH3 mRNA in grass carp brain cells
Assay: PrRPs and GnRH mRNA expression in primary brain cells
Type: cell-based
Settings: E2 1 μM, 24 h, mean

C[C@]12CC[C@@H]3c4ccc(O)cc4CC[C@H]3[C@@H]1CC[C@@H]2O [E2, seventeen β-estradiol]
gnrh2 mRNA expression (CTR = 1): 1.02
